Source: PubChem BioAssay AID1259333 (Broad Institute, 2017)

Tested on: cytotoxicity, CellTiter-Glo ATP luminescence
Assay: loss of cell viability by ATP content – CellTiter-Glo, cytotoxicity control, dose response (AID 1259333)

## CCC1=CC2Cc3nc4ccc(Cl)cc4c(N)c3C(C1)C2 (stereo unspecified)
  AC50: 8.01 µM
